Tests used:
[1] = species on record: Homo sapiens; experiment: Selectivity ratio of IC50 for recombinant epitope-tagged JAK1 (861 to 1152) (unknown origin) to IC50 for recombinant epitope-tagged JAK2 (808 to 1132) (unknown origin)
[2] = species on record: Homo sapiens; experiment: Selectivity ratio of IC50 for recombinant epitope-tagged JAK3 (781 to 1124) (unknown origin) to IC50 for recombinant epitope-tagged JAK2 (808 to 1132) (unknown origin)

Ratio IC50 [1]: 1
Ratio IC50 [2]: 1
Structure (SMILES): CCc1ccc(Cl)cc1-n1cc(-c2ncnc3[nH]ccc23)cc1C(N)=O
